This experiment concerns RPMI-8226 cells. Briefly: Apoptosis assay. Particulars: 1 μM, 48 h, flow cytometry.

`O=C(Nc1nc2cccc(-c3ccc(CN4CCS(=O)(=O)CC4)cc3)n2n1)C1CC1` [Filgotinib, reference compound]: the “Induction of RPMI-8226 cells apoptosis” value was 15.28%. Next, `O=C(CCCCCCC(=O)Nc1ccccc1)NO` [SAHA, vorinostat, reference compound]: 62.2%.

The values are drawn from publication PMC11463018 (Journal of Enzyme Inhibition and Medicinal Chemistry, 2024).
